## Binding of CDR-mutated scFvs to a peptide of the spike HR2 region

Data: MIT Lincoln Laboratory AlphaSeq set, Engelhart et al. 2022, doi:10.1038/s41597-022-01779-4, as distributed in FLAb.

All variants were tested on one target, the spike HR2 peptide PDVDLGDISGINAS (SARS-CoV-2).

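AAYL49 was designed without a model: most single CDR substitutions and a random sample of double and triple ones. The assay is AlphaSeq: two haploid yeast populations carry antibody and antigen on their surface. Mating (16 h, 30 °C) was followed by selection of diploids and sequencing of their barcodes. A regression on co-assayed BCL2-family reference pairs converts the normalised counts of each replicate to an apparent Kd. Each pool was mated in three replicate cultures.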

The variants keep the light chain, the linker and the frameworks of Ab-14 (scFv order VH, the linker GGGGSGGGGSGGGGS, VL).
VH: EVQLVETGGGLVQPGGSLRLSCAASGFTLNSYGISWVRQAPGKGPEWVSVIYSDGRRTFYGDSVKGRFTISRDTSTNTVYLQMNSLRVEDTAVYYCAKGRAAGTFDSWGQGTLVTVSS
VL: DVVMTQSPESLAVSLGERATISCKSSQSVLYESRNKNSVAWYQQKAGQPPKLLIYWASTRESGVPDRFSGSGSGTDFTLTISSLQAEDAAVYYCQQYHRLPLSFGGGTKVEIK

Variants are written as CDR1, CDR2 and CDR3 of the heavy chain (limits as in the source). Parent: GFTLNSYGIS, VIYSDGRRTFYGDSVK, GRAAGTFDS. The read-out is the apparent dissociation constant on a log10 scale (nM): the lower, the stronger. "n.d." means that the variant was in the library but no mating with the target was seen in that replicate; the authors take this as a sign of poor binding, and no number exists. Background: pairings of library AAYL49 with three empty control strains gave a value in 15% of cases (median 4.06, 5th percentile 2.83). Values in that range, when seen in few replicates, are hard to tell from nonspecific mating. The control count says in how many pairings with the empty strains this scFv gave a signal, with their mean in brackets. Parent in this assay: reference entry 0.65, copy in this library 4.11 (one replicate of three).

CDR-H1 | CDR-H2 | CDR-H3 | log10 Kd (nM) by replicate | empty controls
GLTLNSYGIS | VRYSDGRRTFYGDSVK | GVAAGTFDS | n.d. / n.d. / 4.24 | 2 of 9 (5.17)
GFTLNNYGIS | VIYSDGRRFFYGDSVG | GRAAGTFDS | 3.89 / n.d. / 4.08 | 2 of 9 (3.20)
GFTLNSYGIS | VIYSDGRRTFYGASVK | GRMAGPFDS | 5.20 / 3.81 / 3.58 | 5 of 9 (4.41)
GFTLNSYGIS | VILKDGRRTFYGQSVK | GRAAGTFDS | n.d. / n.d. / n.d. | 0 of 9
GFTWNSYVIS | VIYSDGRRTFYGDSVK | FRAAGTFDS | n.d. / n.d. / n.d. | 2 of 9 (3.91)
GFTLNSYGIS | VIYSDGRRTFYGDSLK | GRFAGYFDS | n.d. / n.d. / n.d. | 0 of 9
GATLNSYGIS | VIYSDGRRTMQGDSVK | GRAAGTFDS | n.d. / n.d. / n.d. | 1 of 9 (3.58)
GCTLNSYKIS | VIYSDGRRTFYGDSVK | GKAAGTFDS | n.d. / n.d. / n.d. | 0 of 9
GFAVTSYGIS | VIYSDGRRTFYGDSVK | GRAAGTFDS | 0.81 / 1.06 / 1.19 | 1 of 9 (2.26)
HFTLNSYGIS | VIYSDGRRTFYGTSVK | GRAAGEFDS | n.d. / n.d. / n.d. | 1 of 9 (4.44)
GFTLNSYGIS | VIYSDGRYTFWGDSVK | GRAAGMFDS | n.d. / n.d. / n.d. | 1 of 9 (3.48)
GFTLNSYGIS | VMYSDGRRTFYGSSVK | GRAAGTFDS | 3.64 / 2.26 / 3.88 | 1 of 9 (3.75)
GFTLNEYGIS | VIYSDGRRTFYGDQVT | GRAAGTFDS | n.d. / n.d. / n.d. | 2 of 9 (3.46)
GFTLNSYGIS | VMYSDGRRTAYGDSEK | GRAAGTFDS | n.d. / n.d. / n.d. | 2 of 9 (3.87)
VFTLNSYGIS | VIYSDGARTFYGDSVK | GRAAYTFDS | 4.62 / n.d. / n.d. | 0 of 9
GFTLNSYGIY | VIYSTGRRTFYGDSVK | GRAAGTFDD | n.d. / n.d. / 3.69 | 1 of 9 (3.06)
GFTLNSNGIS | KIYSDGRRTFYGDSVK | GRAAGTEDS | n.d. / n.d. / n.d. | 1 of 9 (3.39)
GFTLNSYGIS | VIYSDGRRTFYGDSVK | NRAPGTFAS | n.d. / 3.25 / n.d. | 2 of 9 (3.50)
GFTLNSYGIS | KIYSDGRRTFIGDSVK | GRAAGTFDS | n.d. / n.d. / n.d. | 0 of 9
RFTLNSYGIS | VIYSDGRRTFYGDSVK | TRAAGTFVS | 2.95 / 3.52 / n.d. | 2 of 9 (3.46)
GFTLNSYGIS | VIYSDGRRTFYGDSVK | LRAASKFDS | n.d. / n.d. / n.d. | 1 of 9 (3.98)
GFTLNSYGPS | VIYSDGRRTFYGDSVK | GRSAGTFDS | n.d. / n.d. / n.d. | 0 of 9
GFDLNSYGVS | VIYSDGRRTFYGDSVK | GRAHGTFDS | 0.79 / 0.92 / 0.85 | 1 of 9 (4.32)
GFTLNSYGIN | VIYSDGRRTFYGDSVK | GNAAGTFMS | 4.60 / 2.99 / 3.66 | 2 of 9 (3.71)
GFTLNSYGIS | VIYSDGRRTFYGDSVT | GRAAGTFDS | 1.91 / 2.10 / 2.56 | 2 of 9 (2.06)
CFTLNSHGIS | VIRSDGRRTFYGDSVK | GRAAGTFDS | n.d. / n.d. / n.d. | 1 of 9 (3.43)
GFCLNSYGIS | VIESDGRRTFYGDSVK | GRAAGTLDS | n.d. / n.d. / n.d. | 0 of 9
GFTLNSCHIS | VIYSDGRRTFYGDSCK | GRAAGTFDS | 4.83 / 5.55 / 6.29 | 5 of 9 (4.57)
FFTLNSYGIR | VIYFDGRRTFYGDSVK | GRAAGTFDS | n.d. / n.d. / 4.95 | 2 of 9 (3.77)
GFTLNSYGSS | VIYSDGRRTFKGDSVK | GRAALTFDS | n.d. / n.d. / n.d. | 0 of 9
HFTLNSYGIS | VIYSDGRRTFYGDSVV | GRAAGTFDS | 2.16 / n.d. / n.d. | 0 of 9
GFTLNSYGIS | VIYSDGLRTFYGDSVK | GRADGLFDS | n.d. / n.d. / n.d. | 2 of 9 (3.44)
GFTLNSYRIS | VIYSDGRRTFYGDSVK | GRFAGRFDS | n.d. / 3.47 / n.d. | 0 of 9
GFTLNSVGIS | VIYSDGRHTLYGDSVK | GRAAGTFDS | 4.01 / 3.83 / 4.63 | 2 of 9 (4.04)
GFTLNSHGIS | VIYSDGRRTFYGDSVI | GRAAGTTDS | n.d. / n.d. / n.d. | 1 of 9 (4.50)
GFYLNSYGIS | VITSDGRRTFYGDSVK | GRAAGQFDS | n.d. / n.d. / n.d. | 1 of 9 (2.56)
GHTLNSYGIS | VIYSDGRHTIYGDSVK | GRAAGTFDS | n.d. / n.d. / n.d. | 3 of 9 (4.18)
GFTKNSYGIF | VIYSLGRRTFYGDSVK | GRAAGTFDS | n.d. / n.d. / n.d. | 0 of 9
GHTLNSYGIN | VIYSDGRRHFYGDSVK | GRAAGTFDS | n.d. / n.d. / 4.64 | 2 of 9 (2.92)
GFTLNSYGIS | DIYSDGRRTFPGDSVK | GRAAGTFQS | n.d. / n.d. / n.d. | 0 of 9

The closing 3 entries, repeated:

CDR-H1 | CDR-H2 | CDR-H3 | log10 Kd (nM) by replicate | empty controls
GFTKNSYGIF | VIYSLGRRTFYGDSVK | GRAAGTFDS | n.d. / n.d. / n.d. | 0 of 9
GHTLNSYGIN | VIYSDGRRHFYGDSVK | GRAAGTFDS | n.d. / n.d. / 4.64 | 2 of 9 (2.92)
GFTLNSYGIS | DIYSDGRRTFPGDSVK | GRAAGTFQS | n.d. / n.d. / n.d. | 0 of 9